This data set is described as follows: Toxicity / tolerability of the compound. The settings on record: in vivo.

In the case of `CC(C)C[C@H](CN)CC(=O)O` [Pregabalin, (S)-3-(aminomethyl)-5-methylhexanoic acid], the Toxicity entry is listed as “relatively nontoxic”.

For the origin of these results see US6359005B1, “Method for the treatment of mania and bipolar disorder” (Warner-Lambert Company, priority 1998, dated 2002).
